Data on 24 compounds can be found in PubChem BioAssay (NCI).

Where “and” joins values, the source holds several entries; their conditions need not be identical. Identical values can stand only once. The list shows a part of the results, in another mix than the full data. Some of these compounds have results that are not shown, active ones among them.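 Treatment: one concentration, 48 hours, 96-well format. Scoring: percent growth, with anything below 10 considered active.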 Calls of active or inactive are those of the source.

The experiment deals with M14 melanoma. Kind of experiment: NCI-60 one-dose screen, 48 h (100 = growth as untreated, 0 = no growth, -100 = all killed). To be noted: 10 µM.
With `N#CC(C#N)=Cc1cccc(Br)c1`, the growth was inactive: 100%. On to `CC(=O)CI`, for which the growth is inactive: 94.5%. Under `ClCCN(CCCl)Cc1ccc(Cl)c(Cl)c1` stands inactive: 97.4%; under `CCCN(CCCl)CCCl`, inactive: 103%. In the case of `ClCCN(CCCl)C1CCCCC1` it was inactive: 98.9%. In the case of `BrCCN(CCBr)Cc1ccccc1` it was inactive: 112%; in that of `N#CC(C#N)=Cc1ccc(Br)cc1`, inactive: 99.1% and inactive: 105%; in that of `Cc1cc2nc(CN(CCCl)CCCl)[nH]c2cc1C`, inactive: 91.9%.

`COc1ccc(N=C=S)cc1CN(CCCl)CCCl`: the growth is inactive: 65.9%.

With `CCNCCCl`, the growth was inactive: 105%. As for `N#CC(C#N)=Cc1ccccc1Cl`, the growth is inactive: 107%.

For the compound `CC[N+](C)(C)Cc1cccc(Cc2ccccc2)c1OC(=O)N(C)C`, the growth is inactive: 101%. For `COCc1c(CN(CCCl)CCCl)cnc(C)c1O`, the growth is inactive: 96.4%.

In the case of `ClCCN(CCCl)Cc1ccsc1Br`, the growth is inactive: 93.1%.

On to `ClCCN(CCCl)C1c2ccccc2-c2ccccc21`, for which the growth was inactive: 100%. `CN(CCBr)CCBr`: the growth is inactive: 101%. In the case of `CCOc1ccc([N+](=O)[O-])cc1CN(CCCl)CCCl` it was inactive: 100%.

Regarding `ClCCCCCC(CCl)NCCCl` (centres undefined), the growth was inactive: 95.1%. Under `COc1ccc([N+](=O)[O-])cc1CN(CCCl)CCCl` stands inactive: 107%; under `CC(C)(C)N(CCCl)CCCl`, inactive: 112%; under `O=C(OCCN1CCCC1)C(O)(c1ccccc1)c1ccccc1`, inactive: 96.1%. Under `ClCCN(CCCl)Cc1cc(Cl)cc(Cl)c1` stands inactive: 75.9%. Under `CN(C)CCOC(=O)C(O)(c1ccccc1)c1ccccc1` stands inactive: 109%; under `Fc1cccc(CN(CCCl)CCCl)c1`, inactive: 88%.
